Test results from paper PMC6882446, “Further validation of strecker-type α-aminonitriles as a new class of potent human carbonic anhydrase II inhibitors: hit expansion within the public domain using differential scanning fluorimetry leads to chemotype refinement” (Journal of Enzyme Inhibition and Medicinal Chemistry, 2019).

Molecular target: hCA II (Homo sapiens, UniProt P00918)
Experiment: stopped-flow CO2 hydration assay
Type: biochemical
Conditions: CO2 […]; […] Hepes pH […]; […] Na2SO4; room temperature; […] min pre-incubation
From the text: stopped-flow CO2 hydration assay on hCA II

COCCOc1ncccc1C(=O)N1CCN(C(C#N)C(C)C)CC1 (stereo not shown)
Ki: 9.1 µM
